Counter-ions that a name gives are not always drawn.

The assay has as its target human μ-subtype opioid receptor (hMOR) (Homo sapiens (Human), UniProt P35372). The experiment in a line: MOR cAMP agonist activity test. As to conditions: maximum effect of enkephalin DAMGO was 100%. In kind it is cell-based. The method, then:
Test 1: MOR cAMP Agonist Activity Test
1.1 Experimental Purpose: To test the cAMP agonist activity of the compounds of the present disclosure on the human μ-subtype opioid receptor (hMOR).
a. Compound samples were dissolved in DMSO to a storage concentration of 10 mM.
b. A series of diluted samples were formulated on a 384-well LDV plate. A total of 11 concentration points were obtained by 3.162-fold gradient dilution.
c. The series of diluted samples were transferred to an experimental plate (Corning-3824) by using an Echo machine, wherein 30 nL was transferred corresponding to each well.
The experiment was performed using a cAMP detection kit from Cisbio (Cisbio #62AM4PEJ).
a. Assay buffer and stimulation buffer (STB) required for the experiment were formulated.
Stimulation Buffer: formulated with the assay buffer, containing 5 μM NKH477 (CAS: 138605-00-2) and 200 μM IBMX (3-isobutyl-1-methylxanthine)
b. […] The number of cells in the well was 10,000 cells/well.
c. The experimental plate was placed in a 37° C. constant-temperature incubator for incubation. The incubation was performed for 40 minutes.
d. A cAMP standard concentration curve was prepared. The first concentration point was at 2848 nM, and a total of sixteen detection concentrations were obtained by 4-fold gradient dilution. There were three replicates for each concentration point.
e. The cAMP detection kit from Cisbio was provided therein with a d2-labeled cAMP reagent (d2 reagent) and an Eu-labeled cAMP antibody reagent (Crypate reagent). The above two reagents were formulated according to the kit instructions, and then added to the sample experimental plate and to the cAMP standard concentration experimental plate, respectively. It was necessary to add 5 μL of the d2 reagent and then 5 μL of the Cryptate reagent to each well.
f. After the experimental plates were left at room temperature for 60 minutes, the experimental plates were read on the Envision.
A word on the Emax: it is the size of the effect at its maximum, as opposed to the concentration needed. Turning to `Fc1ccc([C@]2(CCNCc3cccs3)CCO[C@]3(CCOC3)C2)cc1` [(+)-14], the Emax was 80.6%. On to `Fc1ccc([C@]2(CCNCc3scc4c3CCC4)CCO[C@]3(CCOC3)C2)cc1` [Formate Salt of (+)-4], for which the Emax was determined as 97%. The value for `Fc1ccc([C@]2(CCNCc3scc4c3COC4)CCO[C@]3(CCOC3)C2)cc1` [Hydrochloride Salt of (+)-12] was 83%.

Values taken from patent publication US11124523B2, “2,6-dioxaspiro [4,5] decane derivatives and preparation method therefor and pharmaceutical applications thereof” (SHANDONG LUYE PHARMACEUTICAL CO., LTD., priority 2017, dated 2021).
